Values of other authors, collected in article PMC7674238 (Accounts of chemical research, 2020).

Test system: VanA VRE
Settings: vancomycin-resistant strains

In the case of CN[C@H](CC(C)C)C(=O)N[C@H]1C(=O)N[C@@H](CC(N)=O)C(=O)N[C@H]2C(=O)N[C@H]3C(=O)N[C@H](C(=O)N[C@H](C(=O)NCc4ccc(NC(=N)N)cc4)c4cc(O)cc(O)c4-c4cc3ccc4O)[C@H](O)c3ccc(c(Cl)c3)Oc3cc2cc(c3OC2OC(CO)C(O)[C@H](O)C2O[C@H]2CC(C)(NCc3ccc(-c4ccc(Cl)cc4)cc3)[C@H](O)[C@H](C)O2)Oc2ccc(cc2Cl)[C@H]1O (stereo partly shown) [compound 33, GBn-CBP-vancomycin], the “further improvement in antimicrobial activity over CBP-vancomycin” value is listed as no more than 8 fold.
